Experiment [1] has as its target T1, Interstitial collagenase (Homo sapiens, UniProt P03956).
T1 sequence (P03956 whole entry): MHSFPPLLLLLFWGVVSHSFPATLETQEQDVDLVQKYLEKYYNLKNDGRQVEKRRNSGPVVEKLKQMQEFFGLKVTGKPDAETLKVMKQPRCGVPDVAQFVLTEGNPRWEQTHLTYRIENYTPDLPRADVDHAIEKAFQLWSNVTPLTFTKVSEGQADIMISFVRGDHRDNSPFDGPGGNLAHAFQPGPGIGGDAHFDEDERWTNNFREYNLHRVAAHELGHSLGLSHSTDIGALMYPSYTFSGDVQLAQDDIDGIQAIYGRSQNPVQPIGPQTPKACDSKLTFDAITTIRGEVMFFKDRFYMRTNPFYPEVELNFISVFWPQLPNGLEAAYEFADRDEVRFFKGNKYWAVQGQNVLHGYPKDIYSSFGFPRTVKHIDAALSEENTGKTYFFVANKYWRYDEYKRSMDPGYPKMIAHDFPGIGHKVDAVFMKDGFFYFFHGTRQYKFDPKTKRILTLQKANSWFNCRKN
The following applies: read-out: log(1/IC50) (converted).

Sequences of proteins named here, by UniProt entry; tags and fusion partners are left off. A change or cut given only in a name is not applied to a line headed by its entry.
UniProt P14780: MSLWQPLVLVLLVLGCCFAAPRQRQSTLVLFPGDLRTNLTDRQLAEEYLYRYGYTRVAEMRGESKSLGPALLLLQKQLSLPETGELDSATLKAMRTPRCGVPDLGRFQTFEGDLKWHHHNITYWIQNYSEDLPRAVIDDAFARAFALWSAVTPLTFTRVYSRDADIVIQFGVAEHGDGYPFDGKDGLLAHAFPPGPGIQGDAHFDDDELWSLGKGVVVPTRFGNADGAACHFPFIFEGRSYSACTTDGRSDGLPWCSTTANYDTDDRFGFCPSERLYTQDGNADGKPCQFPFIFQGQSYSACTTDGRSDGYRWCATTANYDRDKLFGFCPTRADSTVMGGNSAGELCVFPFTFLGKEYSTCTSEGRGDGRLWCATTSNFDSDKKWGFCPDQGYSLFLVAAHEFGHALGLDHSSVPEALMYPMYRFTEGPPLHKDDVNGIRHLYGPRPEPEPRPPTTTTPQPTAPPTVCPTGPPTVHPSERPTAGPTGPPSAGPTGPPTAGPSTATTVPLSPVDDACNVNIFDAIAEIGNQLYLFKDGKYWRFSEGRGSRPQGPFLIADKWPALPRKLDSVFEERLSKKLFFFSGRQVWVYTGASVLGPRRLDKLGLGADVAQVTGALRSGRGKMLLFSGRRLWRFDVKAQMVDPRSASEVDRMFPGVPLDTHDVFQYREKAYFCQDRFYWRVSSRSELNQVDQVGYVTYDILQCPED

The target of experiment [2] is Matrix metalloproteinase-9 (Homo sapiens, UniProt P14780).
For experiment [3], the target named is Collagenase 3 (Homo sapiens, UniProt P45452).

As for `C[C@@]1(O)CCCN(S(=O)(=O)c2ccc(OCc3ccccc3Cl)cc2)C1C(=O)NO` (some centres not stated), the IC50 in experiment [1] is 269 nM.
As to `Cc1cc(F)ccc1COc1ccc(S(=O)(=O)N2CCC[C@@](C)(O)C2C(=O)NO)cc1` (some centres not stated), in experiment [1], the IC50 is 219 nM.
For the compound `COc1ccc(S(=O)(=O)N(Cc2ccccc2)c2c(C(=O)NO)cccc2C(F)(F)F)cc1`, the “log(1/IC50)” value in experiment [2] was 7.57.
Take `COc1ccc(S(=O)(=O)N(Cc2ccccc2)c2ccccc2C(=O)NO)cc1`: the “log(1/IC50)” value in experiment [3] is 6.26.
The same measure, in the same setting: in the case of `COc1ccc(S(=O)(=O)N(Cc2ccccc2)c2c(OC)cccc2C(=O)NO)cc1` it was 6.86.
Consider `Cc1ccc(F)cc1COc1ccc(S(=O)(=O)N2CCC[C@@](C)(O)C2C(=O)NO)cc1` (some centres not stated), for which, in experiment [1], the IC50 is 603 nM.
Regarding `COc1ccc(S(=O)(=O)N(Cc2ccccc2)c2c(C)cccc2C(=O)NO)cc1`, the “log(1/IC50)” value in experiment [2] was 7.64.

The values are drawn from ChEMBL document CHEMBL1140610, “Matrix metalloproteinases (MMPs): chemical-biological functions and (Q)SARs” (Bioorg Med Chem, 2007).
